Converted amounts (≈) assume the structure as drawn.

As a reminder, the MIC is the lowest concentration found to suppress growth. A high value points to weaker potency.

Common to all, as to test: MIC, broth dilution
What all share (conditions): CLSI broth dilution, MHB, 37°C, 20 h, OD630, at least three repeats; standard strain
In general terms: Broth dilution looks for growth in wells or tubes with falling amounts of substance.

In test [1] the test system is P. aeruginosa ATCC 27853. It is filed as cell-based, Pseudomonas aeruginosa. As for the experimental part:
(§1) All experiments were repeated at least three times.
(§2) To study the influence of physiological ions on the antimicrobial activities of the peptides, The MICs of the peptides were also determined against the standard bacterial strains cultured in MHB containing various salts at their physiological concentrations (150 mM NaCl, 4.5 mM KCl, 1 mM MgCl2, 2 mM CaCl2, 6 μM NH4HCO3, and 4 μM FeCl3) ([Ma et al., 2016]).

For test [2], the system named is E. faecalis ATCC 29212. The class given is cell-based. As for the experimental part:
as §1, §2

Test [3] deals with S. aureus ATCC 25923. The class given is cell-based, Staphylococcus aureus.
From the text: as §1

For `CC[C@H](C)[C@H](NC(=O)CN)C(=O)NCC(=O)N[C@@H](C)C(=O)N[C@H](C(=O)N[C@@H](CC(C)C)C(=O)N[C@@H](CCCCN)C(=O)N[C@H](C(=O)N[C@@H](CC(C)C)C(=O)N[C@H](C(=O)N[C@H](C(=O)NCC(=O)N[C@@H](CC(C)C)C(=O)N1CCC[C@H]1C(=O)N[C@@H](C)C(=O)N[C@@H](CC(C)C)C(=O)N[C@H](C(=O)N[C@@H](CO)C(=O)N[C@@H](Cc1c[nH]c2ccccc12)C(=O)N[C@H](C(=O)N[C@@H](CCCCN)C(=O)N[C@@H](CCCNC(=N)N)C(=O)N[C@@H](CCCCN)C(=O)N[C@@H](CCCNC(=N)N)C(=O)N[C@@H](CCC(N)=O)C(=O)N[C@@H](CCC(N)=O)C(N)=O)[C@@H](C)CC)[C@@H](C)CC)[C@@H](C)O)[C@@H](C)O)C(C)C)C(C)C` [Melittin], the MIC in test [1] was determined as 5 µg/mL (≈ 1.76 µM); in test [2], 2.5 µg/mL (≈ 0.878 µM); in test [3], 5 µg/mL (≈ 1.76 µM).
